Here are results for one compound from PubChem BioAssay AID652083 (The Scripps Research Institute Molecular Screening Center, 2013).

Some of the results follow. The source made the active and inactive calls.

The subject of this assay is BZD (central). In words: PubChem AID 652083. As to conditions: CEREP radioligand binding panel, % inhibition at 10 uM, active compounds read high.

As for `COC(=O)c1cc(Br)cnc1N1CCC(NC2CCCCC2)C(O)C1` (stereo unspecified), the inhibition of specific binding is inactive: -18%.
